The term CLint scaled denotes the capacity of the preparation to metabolise the compound, expressed as a volume cleared per time. Read a low CLint scaled as greater metabolic stability. For orientation: half-life means the time in which the quantity being followed falls by half. A word on the IC50: it is the concentration at which inhibition is half-maximal. A low value points to greater potency in that assay. The fraction unbound is free concentration divided by total concentration. A low value points to extensive binding. One may read the AUC(0-inf) as total exposure, with the tail of the curve extrapolated. Read a high AUC(0-inf) as high exposure. The term Tmax denotes the time at which the peak concentration occurs. In general, AUC(0-t) refers to the area under the concentration-time curve up to a stated or last time point. Read a high AUC(0-t) as more exposure. For orientation: bioavailability means dose-corrected exposure relative to a reference, in per cent. By Cmax is commonly meant the highest concentration seen after dosing.

The nature of data set [1]: in vitro. Conditions: mouse, liver microsomes. A general note: Microsomes from liver hold many membrane-bound enzymes, among them those of drug oxidation.
A short description of data set [2]: in vitro. Conditions: mouse, liver microsomes. This is another data set of the same source.
Data set [3] is described as follows: in vitro. Conditions: human, liver microsomes.
Data set [4] in a line: in vitro. Conditions: human, liver microsomes. The source holds these as a separate data set.
Data set [5] has as its system KLE. Put plainly: Inhibition of cell proliferation in human KLE cells incubated for 48 hrs by CCK-8 assay.
Data set [6] in a line: in vitro. Conditions: plasma.
Data set [7] in a line: in vivo. Conditions: BALB/c, mouse, iv, 2 mg/kg.
Data set [8] is described as follows: in vivo. Conditions: BALB/c, mouse, iv, 2 mg/kg. The source holds these as a separate data set.
The nature of data set [9]: in vivo. Conditions: BALB/c, mouse, po, 10 mg/kg.
Data set [10] deals with KLE. Nature of the data set: animal or person. Conditions: Mus musculus, po, 504 h, read-out: TGI.
In data set [11] the test system is KLE. Nature of the data set: cells. Conditions: Homo sapiens, 48 h, read-out: Activity.
A short description of data set [12]: in vivo. Conditions: BALB/c, mouse, po, 10 mg/kg. This is another data set of the same source.
Data set [13] in a line: in vivo. Conditions: BALB/c, mouse, po, 10 mg/kg. This is another data set of the same source.
For data set [14], the system named is Ishikawa. Nature of the data set: cells. Conditions: Homo sapiens, 48 h, read-out: Activity.
Data set [15] deals with Ishikawa. Nature of the data set: cells. Conditions: Homo sapiens, 48 h, read-out: Activity. This is another data set of the same source.
A short description of data set [16]: in vivo. Conditions: BALB/c, mouse, po, 10 mg/kg. This is another data set of the same source.
The subject of data set [17] is KLE. Put plainly: cells. Conditions: Homo sapiens, 48 h, read-out: Activity. The source holds these as a separate data set.
The nature of data set [18]: in vivo. Conditions: BALB/c, mouse, iv, 2 mg/kg. This is another data set of the same source.
A short description of data set [19]: in vivo. Conditions: BALB/c, mouse, po, 10 mg/kg. This is another data set of the same source.
Data set [20] is described as follows: in vivo. Conditions: BALB/c, mouse, po, 10 mg/kg. The source holds these as a separate data set.
The test system of data set [21] is KLE. Put plainly: cells. Conditions: Homo sapiens, 48 h, read-out: Activity. The source holds these as a separate data set.
In data set [22] the test system is Ishikawa. Nature of the data set: cells. Conditions: Homo sapiens, 48 h, read-out: Activity. This is another data set of the same source.

`CN1CCN(CCCCCN2c3cc(Cl)ccc3Sc3cccnc32)CC1.Cl.Cl`: the CLint scaled in the data set “in vitro [1]” was determined as 1710 mL/min/kg; in the data set “in vitro [4]” it was 50 mL/min/kg. The figures for the half-life in “in vitro [2]” and in the data set “in vitro [3]” were 0.0533 h and 0.415 h, respectively. Besides, half-maximal inhibition in the data set with KLE [5] (IC50) required 10.3 µM. In the data set “in vitro [6]”, this molecule showed a free fraction (fraction unbound) of 0.0084.

Take `COc1ccc2c(c1)N(CCCCCN1CCC3(CCN(C)CC3)CC1)c1ncccc1S2`: the figures for the AUC(0-inf) at 48 h in “in vivo [7]” and in “in vivo [13]” were 659 ng·h/mL and 1400 ng·h/mL, respectively. Further, the intrinsic clearance (CLint scaled) in the data set “in vitro [1]” was 85.1 mL/min/kg; in the data set “in vitro [4]”, 18.7 mL/min/kg. In addition, the results for the half-life at 48 h in the data set “in vivo [8]” and in the data set “in vivo [16]” were 38.5 h and 43.1 h, respectively. The half-life came out at 1.07 h in the data set “in vitro [2]” and 1.11 h in “in vitro [3]”. In “in vivo [9]”, the Tmax at 48 h is 1.33 h. Also, the inhibition in vivo at 2 mg/kg in the data set on KLE [10] worked out at 58%. Further, the figures for the viability at 2 µM with KLE [11] and with Ishikawa [22] were 87.2% and 39.4%, respectively. Besides, the area under the curve AUC(0-t) at 48 h in the data set “in vivo [12]” turned out to be 705 ng·h/mL; in the data set “in vivo [18]”, 440 ng·h/mL. The viability at 0.5 µM in the data set with Ishikawa [14] turned out to be 93.8%. The same molecule had a fraction unbound in the data set “in vitro [6]” of 0.0349. Besides, the viability at 1 µM with Ishikawa [15] worked out at 90.8%. Also, the viability at 3 µM with KLE [17] came out at 84.5%. Moreover, the bioavailability at 48 h in the data set “in vivo [19]” amounted to 32.1%. In the data set “in vivo [20]”, this molecule showed a Cmax at 48 h of 67.5 ng/mL. Also, the viability at 4 µM in the data set with KLE [21] amounted to 79.7%.

For the origin of these results see ChEMBL document CHEMBL5576122, “Discovery of Novel Azaphenothiazine Derivatives to Suppress Endometrial Cancer by Targeting GRP75 to Impair Its Interaction with IP3R and Mitochondrial Ca2+ Homeostasis” (J Med Chem, 2024).
